Experiment: Powder dissolution profiling (intrinsic dissolution rate and apparent solubility) in PhB 6.5 and FeSSIF pH 6.5
Settings: for IDR assay 2 / IDR assay 1: triplicate; for IDR assay 1 + 2: assays 1 and 2 combined
Protocol: Phosphate buffer pH 6.5 (PhB 6.5) was prepared according to a protocol by Galia and co-workers (Galia, E., et al. Evaluation of various dissolution media for predicting in vivo performance of class I and II drugs. Pharm Res 15, pp. 698-705 (1998)). Briefly, 1000 mL of […] Na2HPO4 buffer pH 6.5 was prepared by dissolving 3.95 g Na2HPO4xH2O, 6.19 g NaCl and 0.42 g NaOH in a volumetric flask by adding purified water. The pH was adjusted to pH to 6.5 by titration with 0.5 M NaOH and the volume was adjusted to 1000 mL with purified water. This buffer was sterile filtered and thereafter stored in refrigerator. Fed state simulated intestinal fluid (FeSSIF pH 6.5) was prepared fresh on the day of the experiment by dissolving 1.12 g of Na-taurocholate/lecithin powder (ePhares, Switzerland) in 100 mL PhB ((Galia, E., et al. Evaluation of various dissolution media for predicting in vivo performance of class I and II drugs. Pharm Res 15, pp. 698-705 (1998)). The media was stirred and preheated to 37±1° C. resulting in clear solution of pH 6.5 which contained a mixed micelle system of 15 mM taurocholate and 3.75 mM lecithin.
Dissolution rate and apparent solubility was measured with the pDISS Profiler™ (pION INC, MA, USA) from 0.3-1.3 mg compound weighed into the vial to which the preheated (37° C.) dissolution medium was added. […] Each UV probe was calibrated with its own standard curve prior to the experiment. The obtained results were analysed with the software accompanying the pDISS equipment.
The detailed procedure of the powder dissolution experiments, including the theoretical background, can be found in Avdeef, A., Tsinman, K., Tsinman, O., Sun, N. & Voloboy, D. Miniaturization of powder dissolution measurement and estimation of particle size. Chem Biodivers 6, 1796-1811 (2009); in Fagerberg, J. H., et al. Dissolution Rate and Apparent Solubility of Poorly Soluble Drugs in Biorelevant Dissolution Media. Mol Pharm 7, 1419-1430, (2010); and in Tsinman, K., Avdeef, A., Tsinman, O. & Voloboy, D. Powder dissolution method for estimating rotating disk intrinsic dissolution rates of low solubility drugs. Pharm Res 26, 2093-2100 (2009).

Structure (SMILES) | IDR assay 2 (FeSSIF pH 6.5, 37° C., assay time 25 hours) [μg/min/cm^2] | IDR assay 1 (FeSSIF pH 6.5, 37° C., assay time polymorph B 16 hours, polymorph C 1.3 hours, listed as C) [μg/min/cm^2] | IDR assay 1 + 2 (FeSSIF pH 6.5, 37° C.) [μg/min/cm^2] | IDR assay 2 (PhB 6.5, 37° C., assay time 29 hours (value obtained after 50 minutes), mean ± SD) [μg/min/cm^2] | IDR assay 1 (PhB 6.5, 37° C., assay time polymorph B 19 hours, polymorph C 1.7 hours, mean ± SD, listed as C) [μg/min/cm^2] | IDR assay 1 + 2 (PhB 6.5, 37° C., mean ± SD) [μg/min/cm^2] | IDR assay 1 (FeSSIF pH 6.5, 37° C., assay time polymorph B 16 hours, polymorph C 1.3 hours, listed as B) [μg/min/cm^2] | IDR assay 1 (PhB 6.5, 37° C., assay time polymorph B 19 hours, polymorph C 1.7 hours, mean ± SD, listed as B) [μg/min/cm^2]
COc1cc([C@@H]2c3cc4c(cc3[C@H](O)[C@H]3COC(=O)[C@@H]23)OCO4)cc(OC)c1OC [polymorph C, picropodophyllin] | 1.29 ± 0.09 | 1.24 ± 0.02 | 1.23 ± 0.11 | 0.56 ± 0.05 | 0.57 ± 0.03 | 0.57 ± 0.03 | – | –
COc1cc([C@@H]2c3cc4c(cc3[C@H](O)[C@H]3COC(=O)[C@@H]23)OCO4)cc(OC)c1OC [polymorph B, picropodophyllin] | – | – | – | – | – | – | 2.45 ± 0.05 | 1.12 ± 0.02

Reference: patent publication US9314525B2, “Picropodophyllin polymorph C and its use in cancer therapy” (Axelar AB, priority 2010, dated 2016)
